Measured values taken from paper PMC3162021, “Molecular Sites for the Positive Allosteric Modulation of Glycine Receptors by Endocannabinoids” (PLoS ONE, 2011).
Changes are numbered by the printed parent chain.

Tests used:
Test in all cases: whole-cell voltage clamp, concentration-response
Format in all cases: cell-based
[1] = molecular target: T1, α1 GlyR (Rattus norvegicus, UniProt P07727)
T1 construct: gene Glra1; homomeric α1, expressed in HEK 293 cells from pCI or pcDNA3; A52, I240, G254, S296, K385 (mature numbering); K385 fits the form without the 8-residue loop insert
T1 sequence (P07727 29-449 isoform P07727-2): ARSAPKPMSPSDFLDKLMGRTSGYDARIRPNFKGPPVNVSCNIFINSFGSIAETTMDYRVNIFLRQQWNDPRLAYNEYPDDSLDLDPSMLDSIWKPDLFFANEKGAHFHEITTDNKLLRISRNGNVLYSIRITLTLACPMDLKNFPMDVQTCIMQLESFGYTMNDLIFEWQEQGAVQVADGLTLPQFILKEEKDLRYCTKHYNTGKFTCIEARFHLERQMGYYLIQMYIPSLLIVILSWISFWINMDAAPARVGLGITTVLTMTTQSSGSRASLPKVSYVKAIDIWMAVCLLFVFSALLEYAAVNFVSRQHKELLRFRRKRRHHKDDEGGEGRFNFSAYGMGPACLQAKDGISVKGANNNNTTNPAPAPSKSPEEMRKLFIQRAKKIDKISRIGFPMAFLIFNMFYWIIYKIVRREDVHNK
Text: (§1) whole-cell voltage clamp, concentration-response on α1 GlyR

[2] = molecular target: T2, α1 GlyR (Rattus norvegicus, UniProt P07727, A80T)
T2 construct: gene Glra1; homomeric α1, expressed in HEK 293 cells from pCI or pcDNA3; A52, I240, G254, S296, K385 (mature numbering); K385 fits the form without the 8-residue loop insert
T2 sequence (P07727 29-449 isoform P07727-2 A80T): T1 sequence (P07727 29-449 isoform P07727-2) with A52T
Text: as §1

[3] = molecular target: T3, α1 GlyR (Rattus norvegicus, UniProt P07727, A80T/G282A/S324A)
T3 construct: gene Glra1; homomeric α1, expressed in HEK 293 cells from pCI or pcDNA3; A52, I240, G254, S296, K385 (mature numbering); K385 fits the form without the 8-residue loop insert
T3 sequence (P07727 29-449 isoform P07727-2 A80T/G282A/S324A): T1 sequence (P07727 29-449 isoform P07727-2) with A52T, G254A, S296A
Text: as §1

[4] = molecular target: T4, α1 GlyR (Rattus norvegicus, UniProt P07727, G282A)
T4 construct: gene Glra1; homomeric α1, expressed in HEK 293 cells from pCI or pcDNA3; A52, I240, G254, S296, K385 (mature numbering); K385 fits the form without the 8-residue loop insert
T4 sequence (P07727 29-449 isoform P07727-2 G282A): T1 sequence (P07727 29-449 isoform P07727-2) with G254A
Text: as §1

[5] = molecular target: T5, α1 GlyR (Rattus norvegicus, UniProt P07727, G282A/I268V)
T5 construct: gene Glra1; homomeric α1, expressed in HEK 293 cells from pCI or pcDNA3; A52, I240, G254, S296, K385 (mature numbering); K385 fits the form without the 8-residue loop insert
T5 sequence (P07727 29-449 isoform P07727-2 I268V/G282A): T1 sequence (P07727 29-449 isoform P07727-2) with I240V, G254A
Text: as §1

[6] = molecular target: T6, α1 GlyR (Rattus norvegicus, UniProt P07727, G282A/I268V/S324A)
T6 construct: gene Glra1; homomeric α1, expressed in HEK 293 cells from pCI or pcDNA3; A52, I240, G254, S296, K385 (mature numbering); K385 fits the form without the 8-residue loop insert
T6 sequence (P07727 29-449 isoform P07727-2 I268V/G282A/S324A): T1 sequence (P07727 29-449 isoform P07727-2) with I240V, G254A, S296A
Text: as §1

[7] = molecular target: T7, α1 GlyR (Rattus norvegicus, UniProt P07727, G282A/S324A)
T7 construct: gene Glra1; homomeric α1, expressed in HEK 293 cells from pCI or pcDNA3; A52, I240, G254, S296, K385 (mature numbering); K385 fits the form without the 8-residue loop insert
T7 sequence (P07727 29-449 isoform P07727-2 G282A/S324A): T1 sequence (P07727 29-449 isoform P07727-2) with G254A, S296A
Text: as §1

[8] = molecular target: T8, α1 GlyR (Rattus norvegicus, UniProt P07727, I268V)
T8 construct: gene Glra1; homomeric α1, expressed in HEK 293 cells from pCI or pcDNA3; A52, I240, G254, S296, K385 (mature numbering); K385 fits the form without the 8-residue loop insert
T8 sequence (P07727 29-449 isoform P07727-2 I268V): T1 sequence (P07727 29-449 isoform P07727-2) with I240V
Text: as §1

[9] = molecular target: T9, α1 GlyR (Rattus norvegicus, UniProt P07727, K421A)
T9 construct: gene Glra1; homomeric α1, expressed in HEK 293 cells from pCI or pcDNA3; A52, I240, G254, S296, K385 (mature numbering); K385 fits the form without the 8-residue loop insert
T9 sequence (P07727 29-449 isoform P07727-2 K413A): T1 sequence (P07727 29-449 isoform P07727-2) with K385A
Text: as §1

[10] = molecular target: T10, α1 GlyR (Rattus norvegicus, UniProt P07727, S324A)
T10 construct: gene Glra1; homomeric α1, expressed in HEK 293 cells from pCI or pcDNA3; A52, I240, G254, S296, K385 (mature numbering); K385 fits the form without the 8-residue loop insert
T10 sequence (P07727 29-449 isoform P07727-2 S324A): T1 sequence (P07727 29-449 isoform P07727-2) with S296A
Text: as §1

Question: Which results are given for `NCC(=O)O` [glycine]?
Answer: EC50 [1]: 68 ± 1 µM; EC50 [2]: 195 ± 4 µM; EC50 [3]: 103 ± 4 µM; EC50 [4]: 43 ± 1 µM; EC50 [5]: 32 ± 2 µM; EC50 [6]: 37 ± 1 µM; EC50 [7]: 73 ± 3 µM; EC50 [8]: 63 ± 1 µM; EC50 [9]: 43 ± 3 µM; EC50 [10]: 84 ± 1 µM
